Experimental data published in publication PMC7436049, “Combining In Silico and In Vitro Studies to Evaluate the Acetylcholinesterase Inhibitory Profile of Different Accessions and the Biomarker Triterpenes of Centella asiatica” (Molecules, 2020).

Chains of the proteins cited; added tags and fusions are not shown. Residues count along the entry.
UniProt O42275, 24-633: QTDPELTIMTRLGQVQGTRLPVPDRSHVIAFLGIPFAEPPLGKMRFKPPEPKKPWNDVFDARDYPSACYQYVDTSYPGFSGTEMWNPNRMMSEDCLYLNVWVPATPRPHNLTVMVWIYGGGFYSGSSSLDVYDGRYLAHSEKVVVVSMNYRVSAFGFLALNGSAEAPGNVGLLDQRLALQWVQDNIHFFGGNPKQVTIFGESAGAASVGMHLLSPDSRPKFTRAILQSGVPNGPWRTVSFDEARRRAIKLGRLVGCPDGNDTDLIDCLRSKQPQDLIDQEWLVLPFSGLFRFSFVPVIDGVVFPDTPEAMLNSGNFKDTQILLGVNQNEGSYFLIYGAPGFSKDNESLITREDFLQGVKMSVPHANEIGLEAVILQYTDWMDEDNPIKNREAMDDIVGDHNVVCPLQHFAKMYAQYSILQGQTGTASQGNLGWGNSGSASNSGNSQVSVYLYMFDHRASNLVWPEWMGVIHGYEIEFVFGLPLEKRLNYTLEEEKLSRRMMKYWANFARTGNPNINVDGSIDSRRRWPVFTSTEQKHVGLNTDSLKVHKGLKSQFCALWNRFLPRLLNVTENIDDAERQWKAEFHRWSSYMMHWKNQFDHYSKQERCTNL

Biological target: T1, acetylcholinesterase from electrophorus electricus (Electrophorus electricus, UniProt O42275)
T1 construct: purchased Sigma–Aldrich (St. Louis, MO, USA)
Type: biochemical
Description: All solvents were HPLC grade, purchased from Merck (Darmstadt, Germany). […] Sodium monobasic […] were purchased from Merck (Darmstadt, Germany), and acetylcholinesterase from electrophorus electricus, 5,5′-Dithiobis (2-nitrobenzoic acid), and […] were obtained from Sigma–Aldrich (St. Louis, MO, USA).
The AChE inhibitory activity was evaluated using Ellman’s method, as reported previously. Each sample (20 µL of 5 mg/mL in DMSO) was dispensed in triplicate into a 96-well microplate and mixed with 190 µL of DTNB, 20 µL of substrate (ATCI). The control wells contained 2% of DMSO instead of the extract. The enzymatic activity was measured at 412 nm every 30 s intervals for 3 min. The buffer solution was used as negative control.
The percentage inhibition (%I) of each sample and the positive control (physostigmine) was calculated using the formula:%I: [(Ac − As)/(Ac)] × 100(1) where (%I): Percentage inhibition • Ac: Absorbance of negative control • As: Absorbance of sample
The experiments were expressed as the mean ± standard error of the mean (SEM) in triplicates.

## CNC(=O)Oc1ccc2c(c1)[C@]1(C)CCN(C)[C@@H]1N2C [Eserine, eserine, reference compound]
  AChE inhibitory activity, IC50 Values: 0.05 ± 0.12 µg/mL
